These are literature values, as cited in patent US8273715B2, “Methods of treating fragile X syndrome” (Seaside Therapeutics, Inc., priority 2006, dated 2012).

The data set deals with subjects with autism. As to conditions: cited from earlier work.

Regarding `Cc1nc2n(c(=O)c1CCN1CCC(c3noc4cc(F)ccc34)CC1)CCCC2` [risperidone, 3-[2-[4-(6-fluoro-1,2-benzisoxazol-3-yl)piperidino]ethyl]-2-methyl-6,7,8,9-tetrahydro-4H-pyrido[1,2-α]pyrimidin-4-one], under “over 8 weeks”, the “side effect: weight gain” value is recorded as 2.7 kg. For the setting “subjects with autism”, the “side effect: dizziness” value was 16%, the “side effect: drooling” value is on record as 27%, the “side effect: drowsiness” value is on record as 49% and the “side effect: fatigue” value is on record as 59%. Also, the “side effect: increased appetite” value (subjects with autism) is 73%.
